Data taken from US11912716B2 (priority 2018, dated 2024).

Molecular target: δ opioid receptor (Homo sapiens (Human), UniProt P41143)
Test: biochemical
Settings: CHO cell membranes

Compound: CC(=O)O[C@H]1[C@H](OC(C)=O)[C@H]([C@@](C)(O)CC[C@@H]2OC(C)(C)[C@H]3CC[C@]2(C)O3)[C@@]2(C)CC[C@@H]3OC(C)(C)[C@H](OC(C)=O)CC[C@@]3(C)[C@H]12 [3,12,13-triacetyl limaxol A, (3R,5aS,7aS,8R,9R,10R,10aR,10bS)-dodecahydro-8-((S)-2-hydroxy-4-((1S,2S,5R)-1,4,4-trimethyl-3,8-dioxa-bicyclo[3.2.1]octan-2-yl)butan-2-yl)-4,4,7a,10b-tetramethyl-1H-indeno[5,4-b]oxepine-3,9,10-triol triacetate]
- Ki (Ki for δ opioid receptor as printed in the text, 3H-DPDPE): 47700 ± 21200 nM
- Ki (δ binding affinity Ki (nM), 1.0-1.1 nM 3H-DPDPE): 4770 ± 2130 nM
